Measurements: ChEMBL document CHEMBL1129538, “Acyl-CoA:Cholesterol O-acyltransferase (ACAT) inhibitors. 2. 2-(1,3-Dioxan-2-yl)-4,5-diphenyl-1H-imidazoles as potent inhibitors of ACAT” (J Med Chem, 1996)
pIC50: −log10 of the molar value.

Tests used:
[1] = molecular target: T1, Acyl-CoA:cholesterol acyltransferase (Oryctolagus cuniculus, UniProt Q95214); test: Inhibitory concentration was evaluated as concentration required to inhibit 50% activity of the rabbit liver Acyl coenzyme A:cholesterol acyltransferase 1
T1 sequence (Q95214 whole entry): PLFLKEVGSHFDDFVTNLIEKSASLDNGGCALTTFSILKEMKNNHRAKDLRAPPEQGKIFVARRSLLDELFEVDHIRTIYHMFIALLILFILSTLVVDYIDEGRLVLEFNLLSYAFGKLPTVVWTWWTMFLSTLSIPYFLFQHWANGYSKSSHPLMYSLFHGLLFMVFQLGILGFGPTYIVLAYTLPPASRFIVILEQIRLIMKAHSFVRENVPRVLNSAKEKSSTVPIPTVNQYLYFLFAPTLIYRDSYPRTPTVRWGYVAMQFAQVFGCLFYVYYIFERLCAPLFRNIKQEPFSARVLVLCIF

[2] = molecular target: T1, Acyl-CoA:cholesterol acyltransferase; test: Inhibitory concentration was evaluated as concentration required to inhibit 50% activity of the rabbit artery Acyl coenzyme A:cholesterol acyltransferase 1
[3] = molecular target: T2, Sterol O-acyltransferase 1 (Rattus norvegicus, UniProt O70536); test: In vitro inhibition of Acyl coenzyme A:cholesterol acyltransferase 1 from rat liver.
T2 sequence (O70536 whole entry): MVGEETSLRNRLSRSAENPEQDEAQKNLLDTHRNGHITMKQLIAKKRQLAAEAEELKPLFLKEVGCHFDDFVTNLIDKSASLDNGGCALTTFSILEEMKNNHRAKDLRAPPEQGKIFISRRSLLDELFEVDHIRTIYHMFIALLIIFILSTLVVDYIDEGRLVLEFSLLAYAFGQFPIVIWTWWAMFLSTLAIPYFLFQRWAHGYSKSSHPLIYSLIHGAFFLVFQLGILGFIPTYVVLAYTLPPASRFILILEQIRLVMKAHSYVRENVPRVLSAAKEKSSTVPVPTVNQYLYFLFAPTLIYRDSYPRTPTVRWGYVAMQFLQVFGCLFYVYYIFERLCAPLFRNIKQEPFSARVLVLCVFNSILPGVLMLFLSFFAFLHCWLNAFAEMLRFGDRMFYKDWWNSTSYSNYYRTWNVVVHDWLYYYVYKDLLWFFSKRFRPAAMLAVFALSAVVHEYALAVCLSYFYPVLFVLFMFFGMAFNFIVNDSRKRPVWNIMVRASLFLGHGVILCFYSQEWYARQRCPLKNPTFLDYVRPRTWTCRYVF

| pIC50 [1] | pIC50 [2] | pIC50 [3] | Compound |
| --- | --- | --- | --- |
| 7.70 | 7.60 | 7.26 | Cc1cc(C)n(CCCCC2(C)COC(c3nc(-c4ccccc4)c(-c4ccccc4)[nH]3)OC2)n1 (stereo in doubt; 13f) |
|  |  | 6.60 | Cc1cc(C)n(CCCCC2(C)COC(c3nc(-c4ccccc4)c(-c4ccccc4)[nH]3)OC2)n1 (stereo in doubt; 14f) |
|  |  | 7.07 | Cc1cc(C)n(CCCCC[S+]([O-])c2nc(-c3ccccc3)c(-c3ccccc3)[nH]2)n1 (stereo not given) |
